# AlphaSeq binding of Ab-14 light chain variants to a spike HR2 peptide

Target: peptide PDVDLGDISGINAS, taken from heptad repeat 2 (HR2) of SARS-CoV-2 spike.

Parent: Ab-14, a human scFv built as VH, a 15-residue (Gly4Ser)3 linker, VL. Only the CDRs of the light chain vary.
VH: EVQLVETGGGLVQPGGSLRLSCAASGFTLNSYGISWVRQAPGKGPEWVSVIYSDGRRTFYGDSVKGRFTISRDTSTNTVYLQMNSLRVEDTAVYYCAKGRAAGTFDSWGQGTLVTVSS
VL: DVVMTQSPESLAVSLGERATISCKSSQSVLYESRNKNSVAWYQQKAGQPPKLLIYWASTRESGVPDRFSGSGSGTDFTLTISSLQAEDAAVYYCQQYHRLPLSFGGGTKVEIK

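The parent was found by panning a naive human phage display library on the peptide. This is the validation round: designs drawn from the data on random variants, tested in the same kind of assay. Group labels follow the data file (En: ensemble of fine-tuned language models; GP: Gaussian process model; HC: hill climbing; Gen: genetic algorithm; Gibbs: Gibbs sampling; a sequence that several methods proposed may carry one label only). AlphaSeq pools MATa yeast showing the antibodies with MATalpha yeast showing the peptide. After mating in shaken culture at 30 °C for 16 h, diploids were selected and their barcode pairs sequenced. Each replicate has its own calibration line, from reference interactions of the BCL2 family. There are six technical replicates.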

The parent's light chain CDRs are KSSQSVLYESRNKNSVA, WASTRES, QQYHRLPLS; each variant's own CDRs replace them letter for letter. Variants here have more than six changes. Affinities are written as log10 Kd with Kd in nM; a lower number is a better binder. The mean shown is taken over the replicates in which the pair was detected. A pair that was not seen in any replicate is written "no signal"; this usually means weak binding, but a binder can also be missed. Empty control strains, which show no peptide, gave a signal in 4% of pairings with all light chain designs; the median was 2.64 and 95% of these signals were weaker than 1.59. No background was subtracted. The authors' rule: three or more of the six replicates give a measured affinity, fewer mean a poor binder. The parent sequence was in this pool as ten entries: three were never detected, three once, and four in most replicates, with averages from 0.34 to 2.37. A sequence measured in both rounds can read differently, since the two assays cover different ranges.

MLSDLVKMGVRNTNSVA | DNSTRGP | QQYDRLPLS [En_HC]: 1.32 (6 of 6 replicates).
MLSDLVKMGSRNYNSVA | DNSTRGS | QQYDRLPLS [En_HC]: 2.32 (5 of 6 replicates).
NFSQMVLYGSTLKNSVA | QASTREE | QQYHRLPLI [En_HC]: 0.95 (6 of 6 replicates).
HVTMELAMEKNSYRNIA | DASMRLA | QQYVRLPLG [En_Gibbs]: 0.17 (6 of 6 replicates).
KLVQFMNRGTHHTSNIA | DAQNRND | QQYARLPLA [En_Gen]: 0.64 (6 of 6 replicates).
KLYFNVGTVAHNTQSIA | DMERRED | QQYHRLPLS [En_HC]: 0.18 (6 of 6 replicates).
KSSQLELYEDRMKNSVA | NASYRLD | QQYHRLPLS [GP_Gibbs]: 0.81 (6 of 6 replicates).
NISQSFMTESVWRNSVA | HQSTREQ | QQYDRLPLS [En_HC]: 0.99 (6 of 6 replicates).
KFQQQDEYESRNKNSVA | NASTRSQ | QQYHRLPLS [GP_Gibbs]: 0.10 (6 of 6 replicates).
KLLQAVVGETYNKNSVA | HNSTRED | QEYARLPLS [En_HC]: no signal (0 of 6 replicates).
KLSMWTYGPTEDKYNVA | NDEMRWQ | QQYDKLPLI [En_Gibbs]: 2.21 (2 of 6 replicates).
RIQMQFTWPGNARQNVA | EIQTAID | QQYAHLPLS [En_Gibbs]: 2.67 (2 of 6 replicates).
QVQEEALGGNGYTSNIA | GQSVAMP | QQYDRLPLD [En_Gibbs]: -0.05 (6 of 6 replicates).
KVSEFMRGLMQKKDSIA | DNVTRNN | QQYDRLPLS [En_Gen]: no signal (0 of 6 replicates).
ILSASELYEDRMKNSVA | NASQRES | QQYHRLPLS [GP_Gibbs]: 0.22 (6 of 6 replicates).
KLSQSTLYESGMKNSVA | NASKRMQ | QQYHRLPLS [GP_Gibbs]: 0.13 (6 of 6 replicates).
IISMMVGTKGYNKNSVA | NAETRED | QQYHRLPLS [En_HC]: no signal (0 of 6 replicates).
KLQQMWLYGSRNKNSVA | DASQREE | QQYHRLPLS [GP_Gibbs]: -0.10 (6 of 6 replicates).
MVSMEPNEGTRYWEAVA | DHSQRNN | QQYDQLPLS [En_Gibbs]: no signal (0 of 6 replicates).
NLSWKQIGQNMESMAVA | GTEQRNA | QQYARLPIS [En_Gibbs]: 0.98 (6 of 6 replicates).
KLIQSVAMMSRNKDSIA | DNSTREY | QQYHRLPLS [En_HC]: 1.04 (6 of 6 replicates).
TLTQSVGMESHNKNSVA | DLSTRGN | QQYHRLPLS [En_HC]: 0.88 (6 of 6 replicates).
KFSQAWMYEQRNKNSVA | QASQRES | QQYHRLPLS [GP_Gibbs]: -0.41 (6 of 6 replicates).
QMRDSLSQGIYRQDSVA | STDIRVL | QQYHHLPLS [En_Gibbs]: 0.41 (6 of 6 replicates).
KLSQSGLYGMRNKMSVA | NASQRES | QQYHRLPLS [GP_Gibbs]: 0.36 (6 of 6 replicates).
KISQSVPYEDRNFNSVA | NASYRCS | QQYHRLPLS [GP_Gibbs]: 0.57 (6 of 6 replicates).
MISQMYNMGQFAINSVA | QAQERNA | QQYDRLPLI [En_Gen]: 2.51 (1 of 6 replicates).
KLGGVTEYEMRNKNSVA | QMTTRES | QQYDRLPLS [En_HC]: 0.29 (6 of 6 replicates).
KISINQMHYNKMRSNIA | NTNQKAM | QQYFHLPLM [En_Gibbs]: 1.20 (6 of 6 replicates).
HLSLRLSYGKDLQNAVA | GVQARMT | QQYARLPLL [En_Gibbs]: 1.06 (6 of 6 replicates).
KVDQWEPYGSRNKNSVA | SASTRCS | QQYHRLPLS [GP_Gibbs]: 0.37 (6 of 6 replicates).
TISQMLLMQTSHKNSVA | GEEVRYN | QQYHRLPLS [En_HC]: 1.55 (6 of 6 replicates).
TLTQVQGMSSHNKNSVA | DLSTRGS | QQYHRLPLS [En_HC]: 0.55 (6 of 6 replicates).
TLSQMSGLEAVKHNNVA | ENSTREK | QQYDRLPLT [En_Gen]: 1.76 (6 of 6 replicates).
KLQQSELYEERMSNSVA | SASLRES | QQYHRLPLS [GP_Gibbs]: 0.84 (6 of 6 replicates).
VMQMQQDRMQDAAQNIA | GVDMRET | QQYFRLPFL [En_Gibbs]: 0.56 (6 of 6 replicates).
KISQTFNVGTKNSNSLA | EMSTRGF | QDYHRLPLS [En_HC]: no signal (0 of 6 replicates).
KVSYSGLYGSRNKWSVA | EASTRES | QQYHRLPLD [GP_Gibbs]: 2.67 (2 of 6 replicates).
KVPGSHLYESRNKNSVA | HASTRCS | QDYHRLPLS [GP_Gibbs]: 0.57 (6 of 6 replicates).

Picked from the list: the 4 lowest averages where every replicate gave a value.

For KFSQAWMYEQRNKNSVA | QASQRES | QQYHRLPLS [GP_Gibbs], the assay gave -0.41 (6 of 6 replicates).
For KLQQMWLYGSRNKNSVA | DASQREE | QQYHRLPLS [GP_Gibbs], the assay gave -0.10 (6 of 6 replicates).
For QVQEEALGGNGYTSNIA | GQSVAMP | QQYDRLPLD [En_Gibbs], the assay gave -0.05 (6 of 6 replicates).
For KFQQQDEYESRNKNSVA | NASTRSQ | QQYHRLPLS [GP_Gibbs], the assay gave 0.10 (6 of 6 replicates).

The measurements come from Li et al. 2023 (doi:10.1038/s41467-023-39022-2) through the FLAb antibody collection.